Measured values from ChEMBL document CHEMBL1126858, “Synthesis of (R,S)-trans-8-hydroxy-2-[N-n-propyl-N-(3'-iodo-2'-propenyl)amino]tetral in (trans-8-OH-PIPAT): a new 5-HT1A receptor ligand” (J Med Chem, 1993).

Chains of the proteins cited; added tags and fusions are not shown.
UniProt P19327, whole entry: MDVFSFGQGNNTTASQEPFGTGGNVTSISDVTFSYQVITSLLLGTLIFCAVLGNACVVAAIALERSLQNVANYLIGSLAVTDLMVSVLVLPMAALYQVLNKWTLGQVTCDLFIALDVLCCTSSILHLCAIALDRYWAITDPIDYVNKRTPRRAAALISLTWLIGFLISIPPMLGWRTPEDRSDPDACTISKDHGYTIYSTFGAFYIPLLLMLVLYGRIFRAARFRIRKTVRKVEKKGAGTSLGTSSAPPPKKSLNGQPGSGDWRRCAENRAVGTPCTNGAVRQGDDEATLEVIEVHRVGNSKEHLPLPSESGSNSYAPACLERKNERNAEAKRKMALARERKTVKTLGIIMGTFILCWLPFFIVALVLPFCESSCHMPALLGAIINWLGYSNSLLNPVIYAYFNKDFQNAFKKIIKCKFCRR

Target: 5-hydroxytryptamine receptor 1A (Rattus norvegicus, UniProt P19327)
Test: Binding affinity towards 5-hydroxytryptamine 1A receptor by the displacement of [125I]trans-8-OH-PIPAT in membrane homogenates of hippocampal tissue of rat brain
Assay type: tissue-based, Hippocampus

- Ki: 1820 nM
SMILES: O=C(c1ccc(F)cc1)C1CCN(CCn2c(=O)[nH]c3ccccc3c2=O)CC1 [KETANSERIN]
